Consider one compound from US6153429A (priority 1997, dated 2000).

The test has as its system T1 cells (C3H/10T1/2 fibroblasts transfected with pdBPV-1 (142-6)). Briefly: co-culture focus formation (transformation) assay, T1 test cells on lawn of untransfected C3H/10T1/2 cells. Particulars: 21 days; optimal dose: caffeine 150 mg/ml, tetrahydrofuran 0.1%, FeCl3 50 μM, arsenate 5 μM, mezerein 2.0 ng/ml, vanadyl 0.1 μM, arsenite 0.01 μM, cadmium 1.0 μM, diethylstilbestroel 0.5 μM, 1-methyl-3-nitro-1-nitrosguanidine 0.1 μg/ml, benzo[a]pyrene 0.033 μM.

With `CN(N=O)C(=N)N[N+](=O)[O-]`, the “#Foci In Treated Cells” value is on record as 81 + 4 and the Ratio of Treated: Untreated Foci was 1.1.
